According to patent US20200055883A1, “CYCLIC DI-NUCLEOTIDES DERIVATIVE FOR THE TREATMENT OF CANCER” (Eisai R&D Management Co., Ltd., priority 2017, published 2020):

Experiments:
CT26 tumor = settings: 10 mg/kg intratumorally, a single time
GL261 mouse glioma = settings: 10 mg/kg intratumorally, a single time

## O=[P@]1(S)OC[C@H]2O[C@@H]3[C@H](F)[C@@H]2O[P@](=O)(S)OC[C@H]2O[C@H]([C@H](F)[C@@H]2O1)n1cnc2c(ncnc21)NC/C=C/CNc1ncnc2c1ncn23 [Compound 1a]
CT26 tumor
  activity towards the local sc tumors: potent activity
CT26 tumor; into the sc tumor
  curative systemic activity (treated animals): 9 of 10
GL261 mouse glioma
  activity at local sc tumors: potent activity
GL261 mouse glioma; into the sc tumor
  curative systemic activity (treated animals): 5 of 8
